Literature values, collected in patent US9492398B2, “Nanocapsulation of essential oils for preventing or curing infectious diseases alone or with an antibiotic” (Eydo Pharma, priority 2011, dated 2016).

Conditions: from the literature; cited from earlier work

For CC1(C)S[C@@H]2[C@H](NC(=O)[C@H](N)c3ccc(O)cc3)C(=O)N2[C@H]1C(=O)O [Amoxicillin], the “LD50 in mice by intraperitoneal injection” value is given as 3590 mg/kg.
